# Reference: patent US9573956B2, “Compounds as dual inhibitors of phosphodiesterases and histone deacetylases” (FUNDACIÓN PARA LA INVESTIGACIÓN MÉDICA APLICADA, priority 2013, dated 2017)
# The chains behind the UniProt entries cited, without tags or fusion partners. Residues count along the entry.
# UniProt Q08499, 1-748 isoform 11: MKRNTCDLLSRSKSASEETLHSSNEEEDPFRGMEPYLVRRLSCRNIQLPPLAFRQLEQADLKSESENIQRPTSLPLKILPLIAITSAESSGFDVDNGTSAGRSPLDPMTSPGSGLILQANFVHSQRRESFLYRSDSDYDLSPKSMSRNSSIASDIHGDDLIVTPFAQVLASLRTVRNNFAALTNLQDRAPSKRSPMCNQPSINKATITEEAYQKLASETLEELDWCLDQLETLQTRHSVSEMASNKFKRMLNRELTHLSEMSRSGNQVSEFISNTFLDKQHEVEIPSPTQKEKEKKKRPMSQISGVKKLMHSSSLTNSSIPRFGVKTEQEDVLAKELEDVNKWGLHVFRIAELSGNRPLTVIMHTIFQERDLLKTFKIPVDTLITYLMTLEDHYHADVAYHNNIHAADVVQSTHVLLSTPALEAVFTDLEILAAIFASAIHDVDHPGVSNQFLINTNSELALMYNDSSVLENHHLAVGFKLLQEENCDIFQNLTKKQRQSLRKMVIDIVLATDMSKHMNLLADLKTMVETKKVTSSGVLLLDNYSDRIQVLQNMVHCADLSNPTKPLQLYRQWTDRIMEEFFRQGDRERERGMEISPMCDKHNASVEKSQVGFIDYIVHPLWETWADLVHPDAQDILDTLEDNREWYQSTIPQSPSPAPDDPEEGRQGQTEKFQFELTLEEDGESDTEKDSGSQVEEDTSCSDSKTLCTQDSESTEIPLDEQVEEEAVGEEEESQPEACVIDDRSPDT
# UniProt Q13547, whole entry: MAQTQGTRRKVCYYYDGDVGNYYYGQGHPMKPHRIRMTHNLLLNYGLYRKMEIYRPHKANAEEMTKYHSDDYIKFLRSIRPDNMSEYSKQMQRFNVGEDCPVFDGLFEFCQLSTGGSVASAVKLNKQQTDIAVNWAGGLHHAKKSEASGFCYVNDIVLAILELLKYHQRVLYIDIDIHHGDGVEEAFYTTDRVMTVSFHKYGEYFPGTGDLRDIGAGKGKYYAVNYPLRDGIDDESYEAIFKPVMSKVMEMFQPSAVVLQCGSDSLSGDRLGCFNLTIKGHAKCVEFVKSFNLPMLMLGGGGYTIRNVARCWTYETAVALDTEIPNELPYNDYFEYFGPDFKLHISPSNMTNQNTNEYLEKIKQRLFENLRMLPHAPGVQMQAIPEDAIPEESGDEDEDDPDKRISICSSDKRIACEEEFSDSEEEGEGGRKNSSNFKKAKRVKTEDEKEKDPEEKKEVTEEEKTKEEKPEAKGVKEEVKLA
# UniProt P27815, 1-647 isoform 4: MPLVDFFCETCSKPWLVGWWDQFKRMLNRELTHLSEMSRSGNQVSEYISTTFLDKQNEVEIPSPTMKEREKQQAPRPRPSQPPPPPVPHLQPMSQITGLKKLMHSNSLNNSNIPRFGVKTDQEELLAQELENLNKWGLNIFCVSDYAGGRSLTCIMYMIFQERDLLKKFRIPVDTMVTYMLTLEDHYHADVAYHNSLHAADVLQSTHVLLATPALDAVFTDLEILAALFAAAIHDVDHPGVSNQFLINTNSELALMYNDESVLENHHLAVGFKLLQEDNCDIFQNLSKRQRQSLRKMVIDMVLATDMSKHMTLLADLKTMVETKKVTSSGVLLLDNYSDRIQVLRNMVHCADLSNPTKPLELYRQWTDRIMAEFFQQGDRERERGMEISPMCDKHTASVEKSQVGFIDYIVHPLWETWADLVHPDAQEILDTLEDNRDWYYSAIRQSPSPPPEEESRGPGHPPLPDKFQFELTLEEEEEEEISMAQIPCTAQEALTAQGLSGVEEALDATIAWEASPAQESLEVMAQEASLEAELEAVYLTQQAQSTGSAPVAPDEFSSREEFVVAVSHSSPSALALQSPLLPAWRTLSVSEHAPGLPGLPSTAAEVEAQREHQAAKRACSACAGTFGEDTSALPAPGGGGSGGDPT
# This is a selection: effects in other tests are not listed, and their absence says nothing.
# Key:
# PDE4D7 = PDE4D7 (Homo sapiens, UniProt Q08499); experiment: PDE enzyme activity assay (HTRF cGMP), PDE4D7; details: read-out: PDE4D7 inhibition (IC50); recombinant enzyme
# HDAC1 = HDAC1 (Homo sapiens, UniProt Q13547); experiment: HDAC enzyme activity assay (fluorogenic substrate), HDAC1; format: biochemical; details: read-out: HDAC1 inhibition (IC50); recombinant enzyme
# PDE4A1 = PDE4A1 (Homo sapiens, UniProt P27815); experiment: PDE enzyme activity assay (HTRF cGMP), PDE4A1; format: biochemical; details: read-out: PDE4A1 inhibition (IC50); recombinant enzyme
SMILES,IC50 (PDE4D7) [µM],IC50 (HDAC1) [µM],IC50 (PDE4A1) [µM]
COc1ccc(N(C(=O)c2c(Cl)cncc2Cl)C2CCN(Cc3ccc(/C=C/C(=O)NO)cc3)CC2)cc1OC1CCCC1,> 10,0.01 to 1,> 10
COc1ccc(N(C(=O)c2c(Cl)cncc2Cl)C2CCN(CCCC(=O)NO)CC2)cc1OC1CCCC1,> 10,1 to 10,> 10
